From PubChem BioAssay (NCI)
Some of these compounds have results that are not shown, active ones among them.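 Five concentrations, 48 hours, 96-well plates. GI50 = concentration required for 50% inhibition of growth. Definition used: TGI = concentration required for complete inhibition of growth.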

How the values were obtained:
Assay in all cases: NCI-60 cell line screen, 48 h; in the data active = GI50 below about 0.43 µM; inactive = the rest
[1] = test system: SNB-78 CNS
[2] = test system: OVCAR-5 ovarian
[3] = test system: DMS 273 small cell lung
[4] = test system: HOP-92 NSCLC
[5] = test system: SK-MEL-2 melanoma
[6] = test system: UACC-257 melanoma
[7] = test system: NCI-H322M lung
[8] = test system: ACHN renal
[9] = test system: SN12C renal
[10] = test system: SF-268 CNS
[11] = test system: SK-OV-3 ovarian
[12] = test system: A549 NSCLC
[13] = test system: HT29 colon
[14] = test system: HL-60(TB) leukemia
[15] = test system: HCT-15 colon
[16] = test system: RPMI-8226 leukemia
[17] = test system: CCRF-CEM leukemia
[18] = test system: SF-295 CNS
[19] = test system: KM12 colon
[20] = test system: NCI-H226 lung
[21] = test system: U251 CNS
[22] = test system: NCI-H23 lung
[23] = test system: OVCAR-8 ovarian
[24] = test system: LOX IMVI melanoma
[25] = test system: SW-620 colon
[26] = test system: IGROV1 ovarian
[27] = test system: RXF 393 renal
[28] = test system: OVCAR-3 ovarian

ClCCCCC(CCl)NCCCl (stereo unspecified)
> 100 µM: TGI [1] | TGI [2] | TGI [3] | TGI [4] | TGI [5] | TGI [6] | TGI [7] | TGI [8] | TGI [9] | TGI [10] | TGI [11] | TGI [12] | TGI [13] | TGI [14] | TGI [15] | TGI [16] | TGI [17] | TGI [18] | TGI [19] | TGI [20] | TGI [21] | TGI [22] | TGI [23] | TGI [24] | TGI [25] | TGI [26] | TGI [27] | TGI [28]
inactive: GI50 [1] > 100 µM | GI50 [2] > 100 µM | GI50 [3] 40 µM | GI50 [4] > 100 µM | GI50 [5] > 100 µM | GI50 [6] > 100 µM | GI50 [7] > 100 µM | GI50 [8] 33.5 µM | GI50 [9] 39.9 µM | GI50 [10] 36.3 µM | GI50 [11] > 100 µM | GI50 [12] 66.2 µM | GI50 [13] > 100 µM | GI50 [14] 14.5 µM | GI50 [15] > 100 µM | GI50 [16] > 100 µM | GI50 [17] 8.84 µM | GI50 [18] 75.6 µM | GI50 [19] > 100 µM | GI50 [20] 44.4 µM | GI50 [21] 80.6 µM | GI50 [22] 29.4 µM | GI50 [23] > 100 µM | GI50 [24] 57.5 µM | GI50 [25] > 100 µM | GI50 [26] > 100 µM | GI50 [27] 72.1 µM | GI50 [28] > 100 µM
